Experiments:
[1] = biological target: actin filaments (purified actin, polymerised in vitro)
[2] = biological target: actin filaments (purified actin, polymerised in vitro); experiment: co-sedimentation; high-speed (100,000xg) co-sedimentation; polymerised actin (500 nM in the titration) incubated with Mc modules in AP buffer for 1 h at room temperature; pellet and supernatant by SDS-PAGE and Coomassie; titration quantified by immunoblot (antibody 23C), fit to a single-site isotherm
[3] = biological target: actin filaments in growth cones of cultured hippocampal neurons (mouse (endogenous in cultured hippocampal neurons)); experiment: FRET or BRET; acceptor photobleaching FRET in growth cones of fixed 2 DIV hippocampal neurons; donor GFP or GFP-tagged construct, acceptor TRITC-phalloidin on actin filaments

| loss of pyrene-actin fluorescence after buffer dilution, filaments with Mc modules (actin alone −25%) (% of the initial fluorescence) [1] | Kd [2] | FRET efficiency [3] | Molecule |
| --- | --- | --- | --- |
| -11 | 670 nM |  | MAP6 Mc modules (Mc domain), purified (from UniProt Q63560 221-455) (domain or fragment) |
|  |  | 49.6% | GFP-Mc (GFP fused to rat MAP6 Mc modules) (domain or fragment) VPAAGKASGADQRDTRRKAGPAWMVTRTEGHEEKPLPPAQSQTQEGGPAAGKASGADQRDTRRKAGPAWMVTRTEGHEEKPLPPAQSQTQEGGPAAGKASGADQRDTRRKAGPAWMVTRTEGHEETPLPPAQSQTQEGGPAAGKASGADQRDTRRKAGPAWMVTRTEGHEETPLPPAQSQTQEGGPAAGKASGADERDTRRKAGPAWMVRRSEGHEQTTAAHAQGTGPEGGKGRA |
